Assay results taken from paper PMC3898987 (Bioorganic & Medicinal Chemistry, 2013).

By UniProt entry, the sequences of proteins in these tests, tags left out. Residues count along the entry.
UniProt P46098, 24-478 Y68A: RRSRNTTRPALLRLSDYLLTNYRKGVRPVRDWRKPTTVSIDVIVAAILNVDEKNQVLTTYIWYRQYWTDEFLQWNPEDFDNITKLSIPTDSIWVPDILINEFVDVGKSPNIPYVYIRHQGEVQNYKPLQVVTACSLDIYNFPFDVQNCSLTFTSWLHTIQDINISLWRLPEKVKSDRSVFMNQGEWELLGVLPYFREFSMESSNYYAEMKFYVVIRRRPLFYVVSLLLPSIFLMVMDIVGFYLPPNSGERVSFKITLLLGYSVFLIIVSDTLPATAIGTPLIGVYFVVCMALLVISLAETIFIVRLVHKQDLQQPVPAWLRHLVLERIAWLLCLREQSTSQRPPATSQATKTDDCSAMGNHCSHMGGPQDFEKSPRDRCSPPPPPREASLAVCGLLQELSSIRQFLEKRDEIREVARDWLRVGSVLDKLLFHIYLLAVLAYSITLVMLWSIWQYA

Biological target: 5-HT3A receptor Y73A (Homo sapiens, UniProt P46098, Y68A)
Assay: FlexStation membrane potential dye functional assay, HEK293 cells
Assay type: cell-based
Design: expressed in transfected cells; host or cells: HEK293
Settings: palonosetron inhibition, 5-HT3A Y73A vs WT 5-HT3A

SMILES: O=C1c2cccc3c2[C@H](CCC3)CN1[C@@H]1CN2CCC1CC2 [Palonosetron]
- increase in IC50 compared to wild type receptors: ~15 fold
